From ChEMBL document CHEMBL1212833, “Protein lysine methyltransferase G9a inhibitors: design, synthesis, and structure activity relationships of 2,4-diamino-7-aminoalkoxy-quinazolines” (J Med Chem, 2010)
pIC50: −log10 of the molar value.

What was measured:
[1] = biological target: T1, Histone-lysine N-methyltransferase EHMT1 (Homo sapiens, UniProt Q9H9B1); experiment: Activity at methyl transferase activity GLP by chemiluminescence based oxygen tunneling assay
T1 sequence (Q9H9B1 whole entry): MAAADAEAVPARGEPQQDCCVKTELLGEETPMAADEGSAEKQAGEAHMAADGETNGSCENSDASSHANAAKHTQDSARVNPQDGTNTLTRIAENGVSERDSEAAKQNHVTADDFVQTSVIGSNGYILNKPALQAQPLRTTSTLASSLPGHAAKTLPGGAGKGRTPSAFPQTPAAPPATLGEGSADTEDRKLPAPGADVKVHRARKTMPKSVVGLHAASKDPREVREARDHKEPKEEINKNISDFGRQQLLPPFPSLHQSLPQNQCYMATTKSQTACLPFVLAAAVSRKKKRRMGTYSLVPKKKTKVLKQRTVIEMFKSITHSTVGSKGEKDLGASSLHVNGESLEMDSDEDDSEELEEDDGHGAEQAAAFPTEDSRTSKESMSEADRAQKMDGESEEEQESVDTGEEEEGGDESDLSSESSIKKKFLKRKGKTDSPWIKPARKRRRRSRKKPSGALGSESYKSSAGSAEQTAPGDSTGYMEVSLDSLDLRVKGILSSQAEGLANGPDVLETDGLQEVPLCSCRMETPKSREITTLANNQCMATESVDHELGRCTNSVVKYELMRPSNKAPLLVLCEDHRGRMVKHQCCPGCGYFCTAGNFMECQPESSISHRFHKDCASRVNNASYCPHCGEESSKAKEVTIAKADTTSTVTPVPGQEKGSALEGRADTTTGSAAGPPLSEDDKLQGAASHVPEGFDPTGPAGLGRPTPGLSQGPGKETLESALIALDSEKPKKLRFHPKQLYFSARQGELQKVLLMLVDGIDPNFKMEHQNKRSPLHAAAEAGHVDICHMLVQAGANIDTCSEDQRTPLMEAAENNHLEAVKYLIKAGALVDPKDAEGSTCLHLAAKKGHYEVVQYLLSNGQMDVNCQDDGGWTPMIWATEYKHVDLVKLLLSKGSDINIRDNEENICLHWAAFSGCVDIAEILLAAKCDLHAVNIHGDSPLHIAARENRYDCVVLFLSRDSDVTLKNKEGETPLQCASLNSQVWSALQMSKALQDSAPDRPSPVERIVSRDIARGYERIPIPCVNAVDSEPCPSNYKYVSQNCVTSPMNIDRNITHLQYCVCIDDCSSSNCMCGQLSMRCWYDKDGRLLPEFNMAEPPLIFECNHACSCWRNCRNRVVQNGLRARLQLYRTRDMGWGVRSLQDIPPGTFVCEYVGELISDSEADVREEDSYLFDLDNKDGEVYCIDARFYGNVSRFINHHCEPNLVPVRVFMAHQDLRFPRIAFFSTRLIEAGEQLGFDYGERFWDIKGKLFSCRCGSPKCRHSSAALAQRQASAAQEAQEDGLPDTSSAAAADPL

[2] = biological target: T1, Histone-lysine N-methyltransferase EHMT1; experiment: Activity at methyl transferase activity GLP by enzyme coupled S-adenocylehomocystein detection assay
[3] = biological target: T2, Histone-lysine N-methyltransferase EHMT2 (Homo sapiens, UniProt Q96KQ7); experiment: Inhibition of methyl transferase activity of G9a assessed as inhibition of H3K9 methylation by chemiluminescence based oxygen tunneling assay
T2 sequence (Q96KQ7 whole entry): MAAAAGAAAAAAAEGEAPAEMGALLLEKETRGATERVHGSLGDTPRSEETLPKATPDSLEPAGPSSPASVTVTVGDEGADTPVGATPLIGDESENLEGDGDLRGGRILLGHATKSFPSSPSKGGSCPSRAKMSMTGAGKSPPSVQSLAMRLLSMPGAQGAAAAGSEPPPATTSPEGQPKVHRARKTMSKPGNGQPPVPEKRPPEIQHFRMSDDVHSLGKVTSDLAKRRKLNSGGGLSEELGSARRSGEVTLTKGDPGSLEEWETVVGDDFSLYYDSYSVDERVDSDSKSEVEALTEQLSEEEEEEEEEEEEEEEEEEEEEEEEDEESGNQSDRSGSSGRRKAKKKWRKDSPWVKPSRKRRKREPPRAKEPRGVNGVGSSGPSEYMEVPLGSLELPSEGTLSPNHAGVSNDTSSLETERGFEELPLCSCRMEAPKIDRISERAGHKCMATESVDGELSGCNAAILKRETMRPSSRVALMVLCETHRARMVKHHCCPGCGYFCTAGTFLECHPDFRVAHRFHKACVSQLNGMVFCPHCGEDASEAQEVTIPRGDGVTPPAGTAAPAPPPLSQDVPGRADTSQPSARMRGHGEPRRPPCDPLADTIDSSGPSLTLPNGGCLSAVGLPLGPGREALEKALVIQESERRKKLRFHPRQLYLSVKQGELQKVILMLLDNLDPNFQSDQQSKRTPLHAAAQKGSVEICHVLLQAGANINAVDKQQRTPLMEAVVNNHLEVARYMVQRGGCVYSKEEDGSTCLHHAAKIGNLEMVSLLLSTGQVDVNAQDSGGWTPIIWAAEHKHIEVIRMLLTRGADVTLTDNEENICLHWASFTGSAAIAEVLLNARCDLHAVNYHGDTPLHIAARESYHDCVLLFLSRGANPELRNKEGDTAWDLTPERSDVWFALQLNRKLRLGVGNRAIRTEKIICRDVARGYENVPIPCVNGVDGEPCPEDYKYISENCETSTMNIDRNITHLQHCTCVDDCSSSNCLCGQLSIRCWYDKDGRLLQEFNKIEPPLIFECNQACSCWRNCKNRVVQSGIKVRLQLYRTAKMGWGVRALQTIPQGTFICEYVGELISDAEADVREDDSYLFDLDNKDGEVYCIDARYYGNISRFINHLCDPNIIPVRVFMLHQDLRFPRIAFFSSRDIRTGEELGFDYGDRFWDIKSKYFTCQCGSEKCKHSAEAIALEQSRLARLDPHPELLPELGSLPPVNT

[4] = biological target: T2, Histone-lysine N-methyltransferase EHMT2; experiment: Activity at methyl transferase activity G9a by enzyme coupled S-adenocylehomocystein detection assay

pIC50 [3]	pIC50 [4]	SMILES	pIC50 [1]	pIC50 [2]
		COc1cc2nc(N3CCCN(C)CC3)nc(NC3CCN(Cc4ccccc4)CC3)c2cc1OC	7.57	7.47
6.92	6.96	COc1cc2c(NC3CCN(C)CC3)nc(N3CCCN(C)CC3)nc2cc1OCCN(C)C		
5.28		COc1cc2c(NC3CCN(C)CC3)nc(N3CCCN(C)CC3)nc2cc1OCCCC(C)C		
